“Also recorded” adds a separate entry of the source. Like-named read-outs stand apart in the source and are kept apart here.
Tests used:
[1] = system: platelet aggregation induced with ADP (platelet rich plasma); experiment: In vitro anti-platelet aggregant activity (Born's method, ADP-induced aggregation); format: cell-based, rat; conditions: for inhibition at 1 µg/mL / inhibition at 5 µg/mL / inhibition at 10 µg/mL: Rattus norvegicus, Platelet, 0.05 h, 3 min incubation; for inhibition at 1 µg/mL: dose 1 γ/ml; for inhibition at 5 µg/mL: dose 5 γ/ml; for inhibition at 10 µg/mL: dose 10 γ/ml
[2] = Antinflammatory and analgesic effects (no method described); conditions: summary in words; no data shown
[3] = system: guinea pig tracheal chains (histamine as bronchoconstrictor); experiment: Broncholytic activity in vitro on tracheal chains (Akasu's method), antagonism of histamine; format: cell-based; conditions: summary in words
in vivo = conditions: mouse
Solubility = format: physicochemical; conditions: in dichloromethane, N,N'-dimethylformamide
mouse = conditions: i.p., literature value; cited from earlier work
[4] = ADP 7,08 μmol/l, read-out: Inhibition % of platelet aggregation
[5] = read-out: Inhibition % of platelet aggregation, ADP 7,08 μmol/l

Structure (SMILES) | inhibition at 1 µg/mL ([1]; ADP 2 μmol/l, read-out: Inhibition % of platelet aggregation) [%] | inhibition at 1 µg/mL ([1]; ADP 5 μmol/l, read-out: Inhibition % of platelet aggregation) [%] | inhibition at 1 µg/mL [1, 4] [%] | inhibition at 5 µg/mL [1, 4] [%] | inhibition at 10 µg/mL [1, 4] [%] | anti-platelet aggregant activity ([1]; summary in words) | analgesic effect [2] | antinflammatory effect [2] | broncholytic activity [3] | LD50 (in vivo; ip) [mg/kg] | LD50 (in vivo; po) [mg/kg] | Solubility (Solubility) | inhibition at 1 µg/mL ([1]; read-out: Inhibition % of platelet aggregation, ADP 2 μmol/l) [%] | inhibition at 1 µg/mL ([1]; read-out: Inhibition % of platelet aggregation, ADP 5 μmol/l) [%] | inhibition at 1 µg/mL [1, 5] [%] | inhibition at 5 µg/mL [1, 5] [%] | inhibition at 10 µg/mL [1, 5] [%] | DL50 (LD50) (mouse) [mg/kg]
Cc1ccc(C(=O)c2ccc(CC(=O)NCCn3cnc4c3c(=O)n(C)c(=O)n4C)n2C)cc1 [compound (1), 7-(1-methyl-5-p-methylbenzoylpyrrole-2-acetamidoethyl)theophylline] | 30 | 21 | 12 | 59 | 90 | pronounced therapeutically useful anti-platelet aggregant activity | low antinflammatory and analgesic effects | low antinflammatory and analgesic effects | good broncholytic action; also recorded: good broncholytic activity comparable to that of theophylline | 970 | 1400 | soluble in dichloromethane, N,N'-dimethylformamide |  |  |  |  |  | 
CC(=O)Oc1ccccc1C(=O)O [Aspirin, reference compound] |  |  |  |  |  |  |  |  |  |  |  |  | 29 | 19 | 15 | 60 | 100 | 495

— patent US4571399A, “7-(1-Methyl-5-p-methylbenzoylpyrrole-2-acetamidoethyl)-theophylline with anti-platelet aggregant and broncholytic activity” (Medosan Industrie Biochimiche Riunite S.p.A., priority 1983, dated 1986)
